# Only a part is listed here, and it is no random draw. Active and inactive are the calls of the source. Cut-off read from the data, not from the text of the source: active = inhibition above about 80%; inactive = the rest.
# Amino acid sequences for entries named in this document (tags omitted).
# UniProt P34913, whole entry: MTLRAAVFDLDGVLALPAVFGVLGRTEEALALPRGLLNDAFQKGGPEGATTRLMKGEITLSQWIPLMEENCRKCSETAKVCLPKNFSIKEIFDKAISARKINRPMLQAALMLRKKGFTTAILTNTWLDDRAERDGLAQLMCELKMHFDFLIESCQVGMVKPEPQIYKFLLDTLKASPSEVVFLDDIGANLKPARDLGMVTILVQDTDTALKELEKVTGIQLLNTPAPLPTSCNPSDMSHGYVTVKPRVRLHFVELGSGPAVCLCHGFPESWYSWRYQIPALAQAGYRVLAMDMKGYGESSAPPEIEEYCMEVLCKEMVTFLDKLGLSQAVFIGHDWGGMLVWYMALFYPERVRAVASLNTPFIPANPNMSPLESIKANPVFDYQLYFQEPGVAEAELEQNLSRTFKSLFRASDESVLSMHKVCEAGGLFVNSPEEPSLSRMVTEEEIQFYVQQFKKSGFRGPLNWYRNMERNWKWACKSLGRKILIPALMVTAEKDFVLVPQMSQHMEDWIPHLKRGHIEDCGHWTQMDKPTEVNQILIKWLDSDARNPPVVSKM
# Biological target: Bifunctional epoxide hydrolase 2 (Homo sapiens) (UniProt P34913)
# Assay: soluble epoxide hydrolase inhibitors, primary screen, biochemical, human sEH (AID 707)
# Settings: recombinant human sEH enzymatic activity assay; at 2 µM; hits give high values
row,SMILES,inhibition
1,CCOP1(=S)c2c(C)nn(CCC#N)c2N=C(c2ccccc2F)N1C (stereo unspecified),inactive: -1.4%
